The text below walks through data of patent publication US20240050395A1 (priority 2020, published 2024).

Assay [1] concerns Aβ release of stably-transformed APP (SW) HEK293 cells. Kind of assay: Aβ release, ELISA of supernatant.
Another assay relates to ZR-75-1. Put plainly: Tumor cell inhibition, CellTiter-Glo. Conditions: Breast ductal carcinoma, cultured for 72 h.
For the next assay, the system named is SNU-5. Put plainly: Tumor cell inhibition, CellTiter-Glo. As to conditions: Gastric cancer, cultured for 72 h.
A further assay deals with HepG2. Kind of assay: Tumor cell inhibition, CellTiter-Glo. Conditions: Liver cancer, cultured for 72 h.
In a further assay the test system is LOVO. Kind of assay: Tumor cell inhibition, CellTiter-Glo. As to conditions: Colon cancer, cultured for 72 h.
A further assay relates to Daudi. Kind of assay: Tumor cell inhibition, CellTiter-Glo. Conditions: Leukemia, cultured for 72 h.
The test system of another assay is HCC827. Kind of assay: Tumor cell inhibition, CellTiter-Glo. As to conditions: Lung cancer, cultured for 72 h.

With `[2H]c1ccc([As]=O)c([2H])c1` (centres unmarked), the “Aβ contents in cell culture supernatants vs. d5PAO 50 nM treatment group” value in assay [1] (25 nM and 75 nM) is “significant differences”. Besides, in assay [1] (25 nM, 50 nM and 75 nM, vs. control group), the “extracellular Aβ contents” value is listed as “significantly increased”.
For the molecule `[2H]c1c([2H])c([2H])c([As]=O)c([2H])c1[2H]` (centres unmarked), the IC50 with ZR-75-1 is 50 to 100 nM; in the assay on SNU-5 it was 100 to 200 nM; with HepG2 it was 100 to 200 nM; with LOVO it was 100 to 200 nM; with Daudi, 59.3 nM; in the assay on HCC827 it was 180 nM.
